Reference: patent US5607937A, “Piperazides of substituted phenylalanine derivatives as thrombin inhibitors” (priority 1993, dated 1997)

Molecular target: thrombin (Bos taurus, UniProt P00735)
Conditions: read-out: Ki, Thrombin

## N=C(N)c1cccc(CC(NS(=O)(=O)c2ccc3ccccc3c2)C(=O)N2CCN(C(=O)C3CCCCC3)CC2)c1 (stereo not shown) [AMD 2-Naph CO-cHex]
  Ki: 36 µM
